Read-outs that look alike come from different tables or passages of the source. This is a selection: effects in other tests are not listed, and their absence says nothing.
Tests used:
human μ-opiate receptor = human μ-opiate receptor (Homo sapiens, UniProt P35372); experiment: μ-opiate receptor binding assay with [3H] naloxone (SPA)
ORL1 receptor = ORL1 receptor (Homo sapiens, UniProt P41146); experiment: ORL1 receptor binding assay with 3H-nociceptin/orphanin FQ (SPA); conditions: for % inhibition (ORL1) [1 μM] / Ki: series R3=phenyl, X=O
[1] = Metabolic stability, incubation with human liver microsomes; conditions: substrate 1 μmol/l, 37° C.
[2] = Microsomal biotransformation / metabolite formation, general statements
[3] = Metabolic stability, incubation with mouse liver microsomes

Protein sequences, listed by entry. Tags and fused reporters are not part of them.
UniProt P35372, whole entry: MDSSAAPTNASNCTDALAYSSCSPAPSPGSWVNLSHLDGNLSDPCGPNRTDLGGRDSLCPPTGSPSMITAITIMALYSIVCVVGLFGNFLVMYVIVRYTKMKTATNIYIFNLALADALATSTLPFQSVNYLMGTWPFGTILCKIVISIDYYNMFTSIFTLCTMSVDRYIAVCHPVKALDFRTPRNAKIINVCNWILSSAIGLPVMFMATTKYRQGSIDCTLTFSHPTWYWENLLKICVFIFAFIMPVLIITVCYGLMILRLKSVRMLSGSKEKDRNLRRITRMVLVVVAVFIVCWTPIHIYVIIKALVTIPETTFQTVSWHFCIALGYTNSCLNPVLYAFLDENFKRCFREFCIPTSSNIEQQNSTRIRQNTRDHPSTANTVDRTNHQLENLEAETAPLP
UniProt P41146, whole entry: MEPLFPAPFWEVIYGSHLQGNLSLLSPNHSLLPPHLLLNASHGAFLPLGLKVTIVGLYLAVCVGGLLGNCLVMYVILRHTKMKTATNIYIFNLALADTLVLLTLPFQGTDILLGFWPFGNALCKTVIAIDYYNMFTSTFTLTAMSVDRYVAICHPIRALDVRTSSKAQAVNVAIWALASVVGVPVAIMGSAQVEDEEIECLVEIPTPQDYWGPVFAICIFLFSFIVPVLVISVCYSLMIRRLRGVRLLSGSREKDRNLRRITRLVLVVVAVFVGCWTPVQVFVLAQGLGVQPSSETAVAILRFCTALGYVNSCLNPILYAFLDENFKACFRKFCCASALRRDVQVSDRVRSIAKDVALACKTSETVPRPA

Substance | affinity for the μ-opioid receptor (in words) (human μ-opiate receptor) | % inhibition (μ) [1 μm] (human μ-opiate receptor; 1 μm, series R3=phenyl, R8=H, X=O) [%] | Ki (human μ-opiate receptor; read-out: Ki (μ) mean [μm], series R3=phenyl, R8=H, X=O) [nM] | affinity for the ORL1 receptor (in words) (ORL1 receptor) | % inhibition (ORL1) [1 μM] (ORL1 receptor; R8=H) [%] | Ki (ORL1 receptor; read-out: Ki (ORL1) mean [μm], R8=H) [nM] | % inhibition (μ) [1 μM] (human μ-opiate receptor; 1 μM, series R3=phenyl, R8=F, X=O) [%] | Ki (human μ-opiate receptor; read-out: Ki (μ) mean, series R3=phenyl, R8=F, X=O) [nM] | Conversion rate for human microsomes (300 pmol/ml) [1] | formation of the N-demethyl metabolite [2] | conversion rate as share of the conversion rate for V-1 ([3]; mouse microsomes, rate as % of V-1) | Conversion rate for mouse microsomes (300 pmol/ml) ([3]; substrate 1 μmol/l, mouse microsomes 300 pmol/ml, 37° C.) [nmol/min/nmol P450] | % inhibition (ORL1) [1 μM] (ORL1 receptor; R8=F) [%] | Ki (ORL1 receptor; read-out: Ki (ORL1) mean, R8=F) [nM]
N-{4′,9′-Dihydro-4-phenylspiro[cyclohexane-1,1′(3′H)-pyrano[3,4-b]indol]-4-yl}-pyrrolidine, 2-hydroxy-1,2,3-propanetricarboxylate (4:3) | comparable to V-8 | 94 | 1.1 | comparable to V-8 | 95 | 3.5 |  |  |  |  |  |  |  | 
N-{6′-Fluoro-4′,9′-dihydro-4-phenylspiro[cyclohexane-1,1′(3′H)-pyrano[3,4-b]indol]-4-yl}-azetidine, 2-hydroxy-1,2,3-propanetricarboxylate (2:1) |  |  |  |  |  |  | 101 | 1.9 | no conversion determined | do not form the N-demethyl metabolite | less than 10% | 0.0009 | 91 | 12.3

— patent US7960404B2, “Spirocyclic cyclohexane compounds” (dated 2011)
